Laboratory results reported in patent publication US20250235548A1, “ANTIBODY-DRUG CONJUGATES TARGETING NAPI2B AND METHODS OF USE” (Zymeworks BC Inc., priority 2022, published 2025).

Protein sequences, listed by entry. Tags and fused reporters are not part of them. Residues count along the entry.
UniProt P01308, 25-54 limits assumed, chain 1 of 2: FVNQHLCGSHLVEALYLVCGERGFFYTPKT
UniProt P01308, 90-110 limits assumed, chain 2 of 2: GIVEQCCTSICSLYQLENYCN

Target: Insulin (Sigma-Aldrich, 19278) (Homo sapiens (Human)) (UniProt P01308)
Assay: NS-ELISA, plate coated with insulin, mAb at 100 nM; ratio of signal to a buffer well

- NS-ELISA binding score: 1.03
B1: v29452 humanized anti-NaPi2b antibody (antibody, human IgG1, kappa, V domains shown)
VH: QVQLVQSGAEVKKPGASVKVSCKASGFTFTSYNVHWVRQAPGQGLEWMGAISPGNGDLSYAQKFQGRVTMTRDTSTSTVYMELSSLRSEDTAVYYCARGRTGMGAVDYWGQGTLVTVSS
VL: DVQMTQSPSSLSASVGDRVTITCRASQDVYSYLNWYQQKPGKAVKLLIYYTSRLQSGVPSRFSGSGSGTDYTLTISSLQPEDIATYYCQQYNIFPWTFGQGTKLEIKR
